The target of the first test is HLA-DR DRB1*0901 (DR9) (Homo sapiens, UniProt P01903+P01911, A100R/A103E/D57H/D86V/F55Y/F60I/F76Y/I96F/K127E/L162R/M171V/P40D/Q125H/Q99R/R33Q/R42F/S133A/S66N/T210M/V115G/W38K/Y107V/Y59G/Y89S). The test is described as follows: biochemical. Type of test: binding. Conditions: DRB1 *0901.
On to `CC[C@H](C)[C@H](NC(=O)[C@H](CCCCN)NC(=O)[C@H](CC(=O)O)NC(=O)[C@H](C)N)C(=O)N[C@@H](Cc1ccc(O)cc1)C(=O)N[C@@H](CO)C(=O)N[C@H](C(=O)N[C@@H](CO)C(=O)N[C@@H](CCSC)C(=O)N[C@@H](CCCCN)C(=O)N[C@@H](Cc1c[nH]cn1)C(=O)N1CCC[C@H]1C(=O)N[C@@H](CCC(N)=O)C(=O)N[C@@H](CCC(=O)O)C(=O)N[C@@H](CCSC)C(=O)O)[C@@H](C)CC`, for which the IC50 was 3.51 µM. Same read-out and setting: the result for `CC(C)C[C@H](NC(=O)[C@H](CCC(=O)O)NC(=O)[C@H](CCCCN)NC(=O)[C@H](C)N)C(=O)N[C@@H](CCCCN)C(=O)N[C@@H](Cc1ccccc1)C(=O)N[C@H](C(=O)N[C@H](C(=O)N[C@@H](CC(C)C)C(=O)N[C@H](C(=O)N[C@@H](Cc1ccccc1)C(=O)N[C@@H](CCCNC(=N)N)C(=O)N[C@@H](Cc1c[nH]cn1)C(=O)NCC(=O)N[C@@H](CC(=O)O)C(=O)O)C(C)C)[C@@H](C)O)C(C)C` reads 2.35 µM; that for `CC(C)C[C@H](NC(=O)[C@H](CCCCN)NC(=O)[C@H](CC(C)C)NC(=O)[C@H](CCCCN)NC(=O)CNC(=O)[C@H](CCCNC(=N)N)NC(=O)[C@H](CC(C)C)NC(=O)[C@H](Cc1ccccc1)NC(=O)[C@H](CC(N)=O)NC(=O)[C@H](CO)NC(=O)[C@H](Cc1ccc(O)cc1)NC(=O)[C@@H](NC(=O)[C@H](CCCNC(=N)N)NC(=O)[C@H](Cc1ccccc1)NC(=O)[C@@H](N)CC(C)C)C(C)C)C(=O)O`, 3.51 µM; that for `CC(C)C[C@H](NC(=O)[C@H](CCC(N)=O)NC(=O)[C@H](CCC(N)=O)NC(=O)[C@H](CC(C)C)NC(=O)[C@@H](NC(=O)[C@H](CCCNC(=N)N)NC(=O)[C@@H](N)CC(C)C)[C@@H](C)O)C(=O)N[C@@H](Cc1ccccc1)C(=O)N[C@@H](CC(C)C)C(=O)N[C@@H](CO)C(=O)N[C@H](C(=O)N[C@@H](CC(C)C)C(=O)N[C@@H](CO)C(=O)N[C@@H](Cc1ccccc1)C(=O)N[C@H](C(=O)O)C(C)C)[C@@H](C)O`, 0.166 µM.

On to `CC(C)C[C@H](NC(=O)[C@H](CCC(N)=O)NC(=O)[C@H](Cc1c[nH]c2ccccc12)NC(=O)[C@H](CC(C)C)NC(=O)[C@H](CC(C)C)NC(=O)[C@H](CCCCN)NC(=O)[C@H](CCC(N)=O)NC(=O)[C@H](CO)NC(=O)[C@H](CCC(N)=O)NC(=O)[C@H](CS)NC(=O)[C@H](CC(N)=O)NC(=O)[C@H](CO)NC(=O)[C@H](CO)NC(=O)[C@@H](N)CCCNC(=N)N)C(=O)N[C@@H](CC(N)=O)C(=O)O`, for which the IC50 is 4.06 µM. In turn, `CC[C@H](C)[C@H](NC(=O)[C@H](CCCNC(=N)N)NC(=O)CNC(=O)[C@@H](N)Cc1ccc(O)cc1)C(=O)N[C@@H](CC(C)C)C(=O)N[C@@H](Cc1c[nH]cn1)C(=O)N[C@@H](Cc1ccc(O)cc1)C(=O)N[C@@H](CC(C)C)C(=O)N[C@@H](CCCCN)C(=O)N[C@@H](C)C(=O)N[C@@H](CCCCN)C(=O)N[C@@H](CCC(=O)O)C(=O)N[C@@H](CC(=O)O)C(=O)N[C@@H](CO)C(=O)N[C@@H](Cc1c[nH]cn1)C(=O)O` yielded an IC50 of 7.58 µM.

Still in this test, the particulars now being: read-out: DRB1 *0901.
Consider YDFVFADLRIVYRNG, for which the IC50 was determined as 5.42 µM.

The target in another test is HLA-DR DRB1*0701 (DR7) (Homo sapiens, UniProt P01903+P01911, A100R/A102G/A103Q/D57E/D86V/E43K/F76Y/K127E/L162R/M171V/P40G/Q125H/Q99D/R33Q/R42Y/R54Q/S133A/S66F/T210M/V115G/Y107V/Y59L/Y89S). The test is described as follows: biochemical. Type of test: binding. The settings on record: DRB1 *0701.
Turning to `CC(C)C[C@H](NC(=O)[C@H](CCC(N)=O)NC(=O)[C@H](Cc1c[nH]c2ccccc12)NC(=O)[C@H](CC(C)C)NC(=O)[C@H](CC(C)C)NC(=O)[C@H](CCCCN)NC(=O)[C@H](CCC(N)=O)NC(=O)[C@H](CO)NC(=O)[C@H](CCC(N)=O)NC(=O)[C@H](CS)NC(=O)[C@H](CC(N)=O)NC(=O)[C@H](CO)NC(=O)[C@H](CO)NC(=O)[C@@H](N)CCCNC(=N)N)C(=O)N[C@@H](CC(N)=O)C(=O)O`, the IC50 came to 8.92 µM. On the same count and under the same terms, the result for `CC(C)C[C@H](NC(=O)[C@H](CCCCN)NC(=O)CNC(=O)[C@H](CCCNC(=N)N)NC(=O)[C@H](CC(C)C)NC(=O)[C@H](Cc1ccccc1)NC(=O)[C@H](CC(N)=O)NC(=O)[C@@H](N)CO)C(=O)N[C@@H](CCCCN)C(=O)N[C@@H](CC(C)C)C(=O)N[C@@H](Cc1ccc(O)cc1)C(=O)N[C@H](C(=O)NCC(=O)N[C@@H](CCC(=O)O)C(=O)N[C@@H](C)C(=O)O)[C@@H](C)O` reads 3.78 µM; that for `CSCC[C@H](NC(=O)[C@@H](N)CC(N)=O)C(=O)N[C@@H](CO)C(=O)N[C@@H](CC(C)C)C(=O)N[C@@H](CC(C)C)C(=O)N[C@@H](CCCCN)C(=O)N[C@@H](Cc1c[nH]cn1)C(=O)N[C@@H](CCC(N)=O)C(=O)N[C@@H](CO)C(=O)N[C@@H](CC(C)C)C(=O)N[C@@H](CCCNC(=N)N)C(=O)N1CCC[C@H]1C(=O)N[C@@H](CC(=O)O)C(=O)N[C@@H](CCC(=O)O)C(=O)N[C@@H](CC(=O)O)C(=O)O` [NMSLLKHQSLRPDED], 20.6 µM; that for `CC[C@H](C)[C@H](NC(=O)[C@@H](NC(=O)[C@@H](N)CO)C(C)C)C(=O)N[C@@H](CC(C)C)C(=O)N[C@@H](CC(C)C)C(=O)NCC(=O)N[C@@H](CCCNC(=N)N)C(=O)N[C@@H](Cc1c[nH]cn1)C(=O)N[C@@H](CO)C(=O)N[C@@H](CC(C)C)C(=O)N[C@@H](Cc1ccccc1)C(=O)N[C@@H](Cc1c[nH]cn1)C(=O)N1CCC[C@H]1C(=O)N[C@@H](CCC(=O)O)C(=O)N[C@@H](CC(=O)O)C(=O)O` [SVILLGRHSLFHPED], 26.1 µM.

The test is the same for the next values; noted with them: read-out: DRB1 *0701.
With AALAAAAAAKAAA, the IC50 was determined as 1.32 µM.

ALIYNYGLLYCFRKD: the IC50 worked out at 11.9 µM. Turning to KKCLNEILIRCHCQ, the IC50 amounted to 16.3 µM. Still for that read-out and setting: the result for RTVYRDNNPYGVCIM reads 8.31 µM.

In another test the target is HLA-DR DRB1*0802 (DR8) (Homo sapiens, UniProt P01903+P01911, A100R/A103L/A169T/F76Y/H45Y/I96F/K41T/L162R/M171V/P40S/Q125H/Q178H/Q39Y/Q99D/R218S/R42G/S66Y/V115G/W38E). The test is described as follows: biochemical.
Conditions: not given
Type of test: binding.
On to `CC(C)[C@H](NC(=O)[C@H](C)NC(=O)CNC(=O)[C@@H](NC(=O)[C@H](C)NC(=O)[C@H](Cc1ccc(O)cc1)NC(=O)[C@H](CCC(=O)O)NC(=O)[C@H](CC(N)=O)NC(=O)[C@@H](N)CCC(=O)O)[C@@H](C)O)C(=O)N[C@@H](CCCNC(=N)N)C(=O)N1CCC[C@H]1C(=O)N[C@@H](Cc1ccccc1)C(=O)N[C@@H](CCC(N)=O)C(=O)N[C@@H](C)C(=O)N[C@@H](C)C(=O)O`, for which the IC50 is 17300 nM. Still for that read-out and setting: the figure for `CC[C@H](C)[C@H](N)C(=O)N[C@@H](CC(C)C)C(=O)N[C@@H](CC(C)C)C(=O)N[C@@H](Cc1c[nH]c2ccccc12)C(=O)N[C@@H](CCC(N)=O)C(=O)N1CCC[C@H]1C(=O)N[C@H](C(=O)N1CCC[C@H]1C(=O)N[C@H](C(=O)N[C@@H](Cc1c[nH]cn1)C(=O)N[C@H](C(=O)N[C@H](C(=O)N1CCC[C@H]1C(=O)N[C@@H](CC(C)C)C(=O)N[C@@H](CO)C(=O)O)C(C)C)[C@@H](C)O)C(C)C)[C@@H](C)CC` is 13100 nM.

The compound `CC(C)C[C@H](NC(=O)[C@H](CCCNC(=N)N)NC(=O)CNC(=O)[C@H](CC(N)=O)NC(=O)[C@H](CC(C)C)NC(=O)[C@H](CCC(N)=O)NC(=O)[C@H](Cc1c[nH]c2ccccc12)NC(=O)[C@@H](N)CC(C)C)C(=O)N[C@@H](CCC(=O)O)C(=O)N[C@@H](Cc1ccc(O)cc1)C(=O)N[C@@H](CS)C(=O)N[C@@H](CC(C)C)C(=O)N[C@@H](CCCCN)C(=O)N[C@@H](CC(=O)O)C(=O)N[C@@H](CCCNC(=N)N)C(=O)O` registered an IC50 greater than 16300 nM. The same measure, in the same setting: the result for `CC[C@H](C)[C@H](NC(=O)[C@H](CCC(N)=O)NC(=O)[C@H](Cc1ccc(O)cc1)NC(=O)[C@H](CC(C)C)NC(=O)[C@@H](NC(=O)[C@@H](N)CCSC)[C@@H](C)O)C(=O)N[C@@H](CCC(N)=O)C(=O)N[C@H](C(=O)N[C@@H](CCSC)C(=O)N[C@@H](CCCCN)C(=O)N[C@@H](CCCNC(=N)N)C(=O)N[C@@H](CC(N)=O)C(=O)N[C@@H](CCC(N)=O)C(=O)N[C@@H](CCCCN)C(=O)N[C@@H](CCC(N)=O)C(=O)O)C(C)C` reads 166 nM; that for `CC[C@H](C)[C@H](NC(=O)[C@H](Cc1c[nH]c2ccccc12)NC(=O)[C@@H](NC(=O)[C@@H](N)C(C)C)[C@@H](C)O)C(=O)NCC(=O)N[C@@H](C)C(=O)N[C@@H](C)C(=O)N1CCC[C@H]1C(=O)N[C@@H](CC(C)C)C(=O)N[C@H](C(=O)N[C@@H](CC(C)C)C(=O)N[C@@H](CO)C(=O)N[C@@H](CCCNC(=N)N)C(=O)N[C@H](C(=O)N[C@H](C(=O)O)C(C)C)[C@@H](C)CC)[C@@H](C)CC`, 731 nM.

The same test, now with this note: read-out: DRB1 *0802.
For the compound DRTLMSAMTNLAALE, the IC50 amounted to 2360 nM. Same read-out and setting: the figure for KSKFNILSSPLFNNF is 152 nM.

Source of the values: patent US20060079453A1, “Hla binding peptides and their uses” (priority 2002, published 2006).
